Experimental data reported in patent publication US20230016182A1, “EO/PO-MODIFIED 9-PHENYLACRIDINE PHOTOSENSITIZERS AND APPLICATION THEREOF” (Changzhou Tronly New Electronic Materials Co., Ltd., priority 2019, published 2023).

Assay: Photosensitizer solubility test in 2-butanone and PGMEA
Assay type: physicochemical
Settings: Test temperature 25° C.; solvent PGMEA
Method: The solubility performances of the above products C1-C6 were tested, using 2-butanone and PGMEA as solvent represents. Among them, 9-phenylacridine (denoted as C7, produced by CHANGZHOU TRONLY NEW ELECTRONIC MATERIALS CO., LTD.) was used for comparison.

Q: Which “Solubility in PGMEA” value does the source give for `COCCOCCOCCOc1ccc(-c2c3ccccc3nc3ccccc23)cc1` [Product C1] here?
A: 13.53 g
